Binding of CDR-mutated scFvs to a peptide of the spike HR2 region

Reference: Engelhart et al. 2022, doi:10.1038/s41597-022-01779-4. File: FLAb, binding data.

Antigen: PDVDLGDISGINAS, a 14-residue peptide of the SARS-CoV-2 spike HR2 region.

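Library AAYL52 holds single substitutions and randomly drawn double and triple substitutions in the CDRs. The assay is AlphaSeq: two haploid yeast populations carry antibody and antigen on their surface. After mating in shaken culture at 30 °C for 16 h, diploids were selected and their barcode pairs sequenced. The ratio of observed to expected reads was calibrated, replicate by replicate, on BCL2-family standards whose Kd was known from biolayer interferometry. Mating was done three times.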

Each scFv is VH, a (GGGGS)3 linker, VL, as in the parent Ab-95, and differs from it in the CDRs of the light chain only.
VH: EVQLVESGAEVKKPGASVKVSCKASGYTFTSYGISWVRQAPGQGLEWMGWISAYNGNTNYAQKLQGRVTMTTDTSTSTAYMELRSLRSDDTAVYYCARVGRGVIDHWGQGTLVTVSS
VL: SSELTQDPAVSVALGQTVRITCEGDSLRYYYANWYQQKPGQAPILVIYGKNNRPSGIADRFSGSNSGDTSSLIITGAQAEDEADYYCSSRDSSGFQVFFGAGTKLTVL

Each variant is given by its three light chain CDRs, as the data file delimits them; those of the parent are EGDSLRYYYAN, GKNNRPS, SSRDSSGFQVF.
Affinities are written as log10 Kd with Kd in nM; a lower number is a better binder.
Averages over replicates are reported, and they cover detected replicates only.
"n.d." means that the variant was in the library but no mating with the target was seen in that replicate; the authors take this as a sign of poor binding, and no number exists.
Three control strains display no target. For library AAYL52, 28% of the pairings with them gave a signal, with a median of 3.91 and one signal in twenty below 2.90, so weak values seen in few replicates may be background. The control count says in how many pairings with the empty strains this scFv gave a signal, with their mean in brackets.
Parent in this assay: reference entry 2.31, copy in this library 2.25.

| CDR-L1 | CDR-L2 | CDR-L3 | replicates, log10 nM | mean, log10 nM | signal with controls |
|---|---|---|---|---|---|
| EGDSLRYYYTR | GKNNRPY | SSRDSSGFQVF | 3.68 / 4.28 / 4.16 | 4.04 | 4 of 9 (4.19) |
| EGDSLRYYYAN | FKNNRPS | SSRDVHGFQVF | 3.19 / n.d. / n.d. | 3.19 | 0 of 9 |
| EGDSLRIYYAN | GKRNKPS | SSRDSSGFQVF | 4.14 / 4.99 / 4.22 | 4.45 | 5 of 9 (4.17) |
| SGDSLRYYYSN | GKNNRPS | SSRDSSGFQVF | 2.10 / 2.27 / 2.04 | 2.14 | 4 of 9 (3.46) |
| EGDSLRYFYAN | GKNNRWS | SKRDSSGFQVF | 3.21 / 3.89 / n.d. | 3.55 | 4 of 9 (3.90) |
| EYASLRYYYAN | GKNNRPS | SSRDSSGFQVF | n.d. / 3.05 / 3.30 | 3.17 | 4 of 9 (3.84) |
| YGDSLRYYYAD | GKNNRPS | SSRDSSGFQAF | 4.61 / n.d. / n.d. | 4.61 | 3 of 9 (3.08) |
| EGYSLRYYYAN | GKNNRPS | SSRDLSGFQGF | 3.31 / 2.55 / n.d. | 2.93 | 4 of 9 (3.90) |
| EGDFLNYYTAN | GKNNRPS | SSRDSSGFQVF | 2.99 / 3.37 / 2.40 | 2.92 | 4 of 9 (4.33) |
| EGDLLRYYYAN | GKNNYPS | SSRDSSGFQVY | n.d. / n.d. / 4.40 | 4.40 | 5 of 9 (3.93) |
| EGDSLRWYYAN | GKNIRPS | ISRDSSGFQVF | 3.02 / 2.77 / 2.82 | 2.87 | 3 of 9 (3.62) |
| EGDSSRYYYAN | GKNNMPS | SSRDSSGFQRF | n.d. / n.d. / n.d. | n.d. | 3 of 9 (3.39) |
| EGDSLRYWYAN | GKNNRMS | SSRDSSDFQVF | 4.21 / n.d. / n.d. | 4.21 | 0 of 9 |
| EADSLFYYYAN | GKNNRPS | SSADSSGFQVF | 4.09 / n.d. / n.d. | 4.09 | 2 of 9 (3.51) |
| EGDSMRYYYAN | GKNNRPS | SERDSSGFQVV | n.d. / n.d. / 2.92 | 2.92 | 1 of 9 (4.08) |
| AGDSLRYYYAN | GKNNRPR | SSRDSSGFQPF | 2.59 / 2.85 / n.d. | 2.72 | 2 of 9 (4.89) |
| EGDSLRYYYDN | QKNNAPS | SSRDSSGFQVF | 3.12 / 2.92 / 3.56 | 3.20 | 3 of 9 (4.53) |
| LGDSLRYYYAN | GKNNRCS | SSRDSSGFQVF | 2.83 / 3.19 / n.d. | 3.01 | 1 of 9 (3.33) |
| ELDSLRYYMAN | GKNNRPS | SSRDSSGVQVF | 2.95 / 4.13 / 4.19 | 3.76 | 4 of 9 (3.47) |
| EEDSLRYYYAS | GKNNRPS | SSRDSSGFQRF | n.d. / n.d. / n.d. | n.d. | 2 of 9 (3.63) |
| EGDSLRYYYAN | NKNNRPS | SQWDSSGFQVF | n.d. / n.d. / 3.46 | 3.46 | 1 of 9 (3.47) |
| EGDSLRYYYAN | GKPNRPS | SSRDSSGFQVQ | 3.98 / n.d. / 3.81 | 3.90 | 2 of 9 (4.33) |
| EEDSLRYYYAN | GKNNDPD | SSRDSSGFQVF | 5.21 / 4.66 / n.d. | 4.93 | 1 of 9 (5.04) |
| EGGSLRYYYAG | GKNNRPS | SSRISSGFQVF | n.d. / n.d. / n.d. | n.d. | 1 of 9 (3.83) |
| EGDSLCYQYAN | GKNNRPS | SSRDSSLFQVF | 4.18 / 3.33 / n.d. | 3.75 | 1 of 9 (5.06) |
| EGDSLRNYYAN | GKNNRPV | SSRDSSGFQYF | n.d. / 4.42 / n.d. | 4.42 | 1 of 9 (4.21) |
| EGDSLRYYYAN | GKQNRDS | SSRDSFGFQVF | 3.82 / n.d. / n.d. | 3.82 | 1 of 9 (3.22) |
| EGDALRYYYAN | GKNNRQS | SSRMSSGFQVF | 3.37 / 4.44 / 2.32 | 3.38 | 1 of 9 (3.96) |
| EGDSLRYYYAG | GKAMRPS | SSRDSSGFQVF | 2.81 / 2.28 / 2.01 | 2.36 | 5 of 9 (3.61) |
| YADSLRYYYCN | GKNNRPS | SSRDSSGFQVF | 3.43 / 4.26 / 3.99 | 3.89 | 2 of 9 (3.80) |
| EGDSLRYYFAN | VKNNRPS | SSRDSSVFQVF | n.d. / 5.86 / n.d. | 5.86 | 8 of 9 (4.17) |
| EGDSLRYYYNN | GKNNCPM | SSRDSSGFQVF | n.d. / 4.42 / n.d. | 4.42 | 4 of 9 (3.68) |
| EGDSLFYYYAN | GKNNRPS | SQWDSSGFQVF | 3.30 / 3.11 / 4.12 | 3.51 | 1 of 9 (4.51) |
| EGDGLRYYYAC | GKNNRPS | SSRDSSGFQVF | n.d. / 3.82 / n.d. | 3.82 | 4 of 9 (4.08) |
| EGDSLRYYYAY | GKNNRPS | SSTDSSGFQVF | 4.57 / n.d. / 3.95 | 4.26 | 1 of 9 (4.19) |
| EGDSLRYYYAN | GKNNRPS | MSRDSSFFQVK | 3.65 / 2.66 / 3.08 | 3.13 | 3 of 9 (4.07) |
| EGDSLRYYYAN | GSNMRPS | HSRDSSGFQVF | n.d. / n.d. / 2.72 | 2.72 | 5 of 9 (3.72) |
| EGDSLRYYYAD | GKTNRPS | SSRTSSGFQVF | 3.85 / n.d. / n.d. | 3.85 | 7 of 9 (4.24) |
| EGDSLRYYYAN | GLNNHPS | SSRDSSGFQVI | n.d. / n.d. / n.d. | n.d. | 2 of 9 (3.11) |
| EGDSLRYYCWN | GKNNRPL | SSRDSSGFQVF | 4.66 / n.d. / n.d. | 4.66 | 1 of 9 (3.56) |

From the list, the first 4 with no signal in any replicate:

| CDR-L1 | CDR-L2 | CDR-L3 | replicates, log10 nM | mean, log10 nM | signal with controls |
|---|---|---|---|---|---|
| EGDSSRYYYAN | GKNNMPS | SSRDSSGFQRF | n.d. / n.d. / n.d. | n.d. | 3 of 9 (3.39) |
| EEDSLRYYYAS | GKNNRPS | SSRDSSGFQRF | n.d. / n.d. / n.d. | n.d. | 2 of 9 (3.63) |
| EGGSLRYYYAG | GKNNRPS | SSRISSGFQVF | n.d. / n.d. / n.d. | n.d. | 1 of 9 (3.83) |
| EGDSLRYYYAN | GLNNHPS | SSRDSSGFQVI | n.d. / n.d. / n.d. | n.d. | 2 of 9 (3.11) |